Experimental data as given in patent US20230399313A1, “BIOLOGICAL ACTIVITIES OF 5-(2-(4-(4-FLUORO-2-METHYL-1H-INDOL-5-YLOXY)-6-METHOXYQUINOLIN-7-YLOXY)ETHYL)-5-AZASPIRO[2.4]-HEPTAN-7-OL CRYSTALLINE, PHOSPHORIC ACID SALT AND ITS ENANTIOMERS” (Advenchen Pharmaceuticals, LLC, priority 2022, published 2023).

System: murine colorectal CT26 cell line
Assay: Murine colorectal CT26 model, combination with anti-mouse PD-1 antibody
Assay type: in vivo
Conditions: 200 μg/mouse/Q3d IP, CT26 mice
Experimental: The efficacy of Compound A-Xln plus immunotherapies, such as anti-mouse PD-1 antibody combination treatment was also tested.
Nude mice were inoculated with murine colorectal CT26 cell line for 7 days and randomized into groups of 6 and were then treated with vehicle, Compound A-Xln in two dosing groups once daily, anti-mouse PD-1 (PD-1) at 200 μg/mouse once every 3 days in one group, or a combination of Compound A-Xln with anti-PD-1 in two dosing groups.

PD-1
Mean tumor volume D0 (D0 (first drug administration time, baseline)): 126.5 mm^3
Mean tumor volume D17 (D17): 1526.8 mm^3
T/C D17 (D17): 67.90%
